Molecular target: T1, human LTA4 hydrolase (Homo sapiens, UniProt P09960)
T1 sequence (P09960 1-611): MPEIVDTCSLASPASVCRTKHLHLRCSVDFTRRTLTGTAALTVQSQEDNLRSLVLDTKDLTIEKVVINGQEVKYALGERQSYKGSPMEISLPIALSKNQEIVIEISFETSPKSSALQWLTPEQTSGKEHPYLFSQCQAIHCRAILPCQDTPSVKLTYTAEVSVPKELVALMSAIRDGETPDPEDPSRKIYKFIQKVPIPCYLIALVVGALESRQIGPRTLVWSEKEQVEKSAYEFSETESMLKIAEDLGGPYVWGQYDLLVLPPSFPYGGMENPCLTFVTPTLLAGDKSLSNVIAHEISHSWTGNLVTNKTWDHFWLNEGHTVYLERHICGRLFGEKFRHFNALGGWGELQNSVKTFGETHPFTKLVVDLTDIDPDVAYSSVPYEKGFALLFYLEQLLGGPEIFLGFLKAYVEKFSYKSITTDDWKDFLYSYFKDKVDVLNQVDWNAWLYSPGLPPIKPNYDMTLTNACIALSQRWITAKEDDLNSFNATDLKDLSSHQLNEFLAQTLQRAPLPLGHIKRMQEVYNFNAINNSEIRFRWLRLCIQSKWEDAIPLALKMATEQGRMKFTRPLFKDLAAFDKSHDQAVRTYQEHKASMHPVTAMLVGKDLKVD
Assay: LTA4H Enzyme assay (cleavage of Arg-AMC, fluorescence)
Assay type: biochemical
Conditions: LTA4H Enzyme 1 nM, Arg-AMC substrate 50 μM, room temperature 1 h
Experimental: The compounds of the invention are assessed for the ability to interact with human LTA4 hydrolase in an enzymatic assay that measures the ability of the enzyme to cleave the peptide bond of arginyl-aminomethylcoumarin (Arg-AMC). LTA4H Enzyme (1 nM final), Arg-AMC substrate (50 μM final), and compound are combined in a reaction buffer (50 mM Tris-HCl (pH 7.5), 100 mM KCl, 0.5% bovine serum albumin) at room temperature for 1 h. The formation of product is assessed by measuring the fluorescence of aminomethylcoumarin product (excitation wavelength 380 nm/emission wavelength 460 nm).

SMILES | IC50 [nM]
CN(Cc1ccc([C@H]2COc3ccccc3O2)cc1)[C@H]1CCCC[C@H]1O [Example 106, (1R,2S)-2-[{4-[(2S)-2,3-dihydro-1,4-benzodioxin-2-yl]benzyl}(methyl)amino]cyclo-hexanol] | 0.46
CN(Cc1ccc([C@H]2COc3ccccc3O2)cc1)[C@H]1CCCC[C@@H]1O [Example 105, (1S,2S)-2-[{4-[(2S)-2,3-dihydro-1,4-benzodioxin-2-yl]benzyl}(methyl)amino]cyclo-hexanol] | 0.51
